Literature values as cited in US20230181464A1, “COMPOSITIONS FOR DELIVERY OF BIOACTIVE AGENTS INTO HAIR FOLLICLES” (FOLLICLE PHARMA LTD, priority 2020, published 2023).

Settings: cited from earlier work

## CN(C/C=C/C#CC(C)(C)C)Cc1cccc2ccccc12
  LogP: logP 5.53
